## Antibody variant affinities, Ab-14 light chain, assay B

Values reported by Li et al. 2023, doi:10.1038/s41467-023-39022-2 (FLAb copy).

Antigen: PDVDLGDISGINAS, a 14-residue peptide of the SARS-CoV-2 spike HR2 region.

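This is the validation round: designs drawn from the data on random variants, tested in the same kind of assay. Several design methods are mixed in this list. AlphaSeq pools MATa yeast showing the antibodies with MATalpha yeast showing the peptide. After mating in shaken culture at 30 °C for 16 h, diploids were selected and their barcode pairs sequenced. A regression on co-assayed BCL2-family reference pairs converts the normalised counts of each replicate to an apparent Kd. There are six technical replicates.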

The variants keep the heavy chain, the linker and the frameworks of Ab-14 (scFv order VH, a (GGGGS)3 linker, VL).
VH: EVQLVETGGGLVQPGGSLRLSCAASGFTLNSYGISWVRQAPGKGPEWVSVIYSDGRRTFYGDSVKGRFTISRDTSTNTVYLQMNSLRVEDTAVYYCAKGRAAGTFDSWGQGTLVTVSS
VL: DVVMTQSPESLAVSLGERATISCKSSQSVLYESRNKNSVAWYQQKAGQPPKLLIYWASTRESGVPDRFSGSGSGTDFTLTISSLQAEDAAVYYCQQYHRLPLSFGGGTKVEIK

Variants are written as CDR1, CDR2 and CDR3 of the light chain (limits as in the source). Parent: KSSQSVLYESRNKNSVA, WASTRES, QQYHRLPLS.
This list holds designs with at most six substitutions.
Numbers give log10(Kd / nM), so 0 is 1 nM and 3 is 1 µM. Smaller is tighter.
"nd" marks a missing value. The strain was present, yet no cells mated with the target were sequenced in that replicate, which points to weak or no binding.
In the paper, a design with two or fewer of six values counts as a poor binder.

Variant KSLQSVDYESRNKNSVA / HASTRED / QLYHRLPLS showed 0.36, 0.39, 0.10, 0.16, 0.15, 0.24 (controls 4 of 18). Variant KLCQSELYESRNKNSVA / HASTRED / QQYHRLPLS gave -0.02, -0.22, -0.27, -0.29, -0.27, -0.22 (controls 0 of 18). Variant KSSQSTLYESTNKNSVA / NASTRES / QQYHRLPLS showed 0.26, 0.01, -0.11, 0.16, 0.03, 0.13 (controls 0 of 18). Variant KHSISYLEESRNKNSVA / EASTRES / QQYHRLPLS gave 0.75, 0.51, 0.51, 0.35, 0.36, 0.55 (controls 1 of 18). Variant KMEQGVLYESRNKGSVA / GASVRES / QQYHRLPLS showed 0.36, 0.25, 0.21, 0.07, -0.21, 0.33 (controls 1 of 18). Variant KSSQSVLYHSRNKNSVA / WASTRES / QSYHRLPLS showed nd, nd, 1.88, nd, nd, 2.82 (controls 1 of 18). Variant KLEQSVLYESRNKNSIA / WASTRES / QQYHRLPLS showed 0.76, 0.73, 0.50, 0.52, 0.96, 0.60 (controls 1 of 18). Variant KLQWSWLYESRNWNSVA / DASTRES / QQYHRLPLS showed 0.21, 0.14, 0.19, -0.09, 0.18, 0.27 (controls 0 of 18).

With KLSQSVLLESRNKNSVA / WASTREE / QQYHRLPLS the result was 0.58, 0.67, 0.68, 0.39, 0.98, 1.19 (controls 0 of 18). Variant KVSQSLLYEQRNKNSVA / WASERES / QQYHRLPLS showed 0.68, 0.29, 0.54, 0.53, 0.92, 0.75 (controls 1 of 18). Variant KSSQSVLTESNNKNSVA / WASTRES / QQYHRLPLS gave 0.15, 0.16, 0.54, 0.48, 0.14, 0.79 (controls 1 of 18). With KQSQSQLCESRNKNSVA / DASTRES / QQYHRLPLS the result was 0.79, 0.40, 0.36, 0.22, 0.63, 0.32 (controls 0 of 18). Variant KSPISLLYESRNKNSVA / AASTRES / QQYHRLPLS showed 2.40, 1.15, 1.33, 1.78, 1.22, 1.67 (controls 2 of 18). For KSQQSVIYESTNKNSVA / WASTRES / QQYHRLPLS, the assay gave 1.52, nd, 2.02, 3.64, 2.19, 2.16 (controls 0 of 18). Variant KSSQSVLYESGNKNSVA / NASTRED / QQYHRLPLS showed -0.40, -0.18, -0.04, 0.35, -0.30, 0.31 (controls 0 of 18). With KSVQSVLYESRNKNSVA / WASTRES / QQYHRLPAS the result was nd, nd, nd, 2.60, nd, nd (controls 0 of 18).

For KSSQSVLYESMNKNSVA / EASQRES / QQYHRLPLS, the assay gave 0.51, 0.31, 0.25, 0.05, -0.02, 0.51 (controls 3 of 18). Variant KSMQSVLYESRNKNSVA / WASTRES / QQYHRLPLS showed nd, nd, nd, nd, nd, nd (controls 0 of 18). With KLEQSTLYESRNPNSVA / WASTRES / QQYHRLPLS the result was 0.24, 0.25, 0.18, 0.19, 0.18, 0.33 (controls 2 of 18). Variant KVSQSVLYESRNKASVA / NASTRES / QQYHRLPLS gave -0.04, -0.14, -0.09, -0.20, -0.11, 0.14 (controls 2 of 18). For KLKQSVLYESRNKNSVA / NASTRMS / QQYHRLPLS, the assay gave -0.21, -0.20, -0.49, -0.53, -0.47, -0.11 (controls 2 of 18). With KFSQSVLYESRNKNSVA / WASTRES / QQCDRLPLG the result was 1.53, 2.89, 1.29, 1.82, 1.74, 2.53 (controls 0 of 18). Variant KSSQSVLYESRNKNSVA / WASTCES / QQYHRLPLS showed nd, nd, nd, nd, nd, nd (controls 1 of 18). Variant KLSQSVLYESRNKNSVA / NASTRES / QQYHRLPLH gave 0.10, 0.24, 0.40, 0.09, -0.20, 0.45 (controls 2 of 18).

Variant KFSQSVLYESTTENSVA / NASTRES / QQYHRLPLS showed 0.38, 0.37, 0.34, 0.12, 0.34, 0.24 (controls 1 of 18). Variant KSSQSGLVESRNPNSVA / WASTRES / QQYHRLPLS showed nd, nd, nd, 2.63, 2.23, 0.75 (controls 1 of 18). With KSSQSVLYESRNTNSVA / WASTREK / QQYHRLPLS the result was 2.43, 2.19, 1.05, 2.67, 3.82, 1.63 (controls 0 of 18). Variant KSSQSVLEESRNKNSVS / HASTRES / QQYHRLPLS showed 0.59, 0.46, 0.34, 1.16, 0.34, 0.38 (controls 2 of 18). Variant KLSQSKLYESRNKNSVA / GASTRES / QQYHRLPLS showed 0.25, 0.47, 0.33, 0.19, 0.49, 0.70 (controls 0 of 18). For KESGSWLYESRNKNSVA / GASTRES / QQYHRLPLS, the assay gave 0.85, 0.70, 0.60, 0.70, 0.63, 0.80 (controls 0 of 18). With KVLQSVPYEGRNKNSVA / HASTRED / QQYHRLPLS the result was 0.11, 0.13, -0.05, -0.05, 0.01, 0.10 (controls 1 of 18). For KSSQSVLEESRNKNSVA / WAVTRES / QQYHRLPLS, the assay gave 1.53, 2.15, 0.58, 1.31, 1.01, 2.23 (controls 1 of 18).

Variant KLSQSVLYESRNKNSVA / NASTREQ / QDYHRLPLS gave 0.44, 0.07, 0.19, -0.07, -0.14, 0.03 (controls 0 of 18). With KLMQSHLYESRNKNSVA / NASTRMS / QQYHRLPLS the result was 0.39, 0.40, 0.30, 0.29, 0.16, 0.31 (controls 2 of 18). Variant ALSQSELYESRNKNSVA / NASTRES / QQYHRLPLS gave 0.48, 0.74, 0.11, 0.23, 0.21, 0.02 (controls 1 of 18). With KVSQSELYESRNKWSVA / NASTRES / QQYHRLPLS the result was 0.36, 0.10, 0.08, 0.02, -0.11, 0.47 (controls 3 of 18). For KNSQGVLYESLNKNSVA / DASTRES / QQYHRLPLS, the assay gave 0.34, 0.18, 0.34, -0.31, -0.19, -0.03 (controls 0 of 18). With KSSQSVTYESRNANSVA / GASTRES / QQYGKLWLS the result was 1.11, 2.04, 0.95, 0.88, 1.75, 1.00 (controls 1 of 18). Variant KSSQSVLYESRNKNSVA / WASKRES / QQYHRLPFS gave 4.26, nd, nd, nd, nd, nd (controls 0 of 18). For KSSPSMLDESRSKNSVA / KASTRES / QQYHREPLS, the assay gave nd, nd, nd, nd, 3.88, nd (controls 1 of 18).

Variant KLSQSVLYESRNKNSVA / NASTRES / QQYHRLPSS showed nd, nd, nd, 2.28, nd, nd (controls 3 of 18). Variant HVSPSELYESRNKNSVA / NASTRES / QQYHRLPLS showed -0.33, -0.31, -0.40, -0.55, -0.43, -0.29 (controls 0 of 18). Variant KSDQSVLYESRNKNSVA / WTSTRES / QQYHRLPLS gave nd, 1.95, nd, 2.47, nd, 1.86 (controls 1 of 18). For KQSQENLYESRNKNSVA / DASTRES / QQYHRLPLS, the assay gave 0.14, 0.04, 0.04, -0.10, -0.08, 0.07 (controls 1 of 18). Variant KMSQSVLYESRNKNSVA / EASQRES / QQYHRLPLS showed -0.17, -0.30, -0.39, -0.60, -0.49, -0.19 (controls 0 of 18). Variant VLSQSVLYESRNKNSVA / HASTRES / QQYHRLPLS showed 0.11, 0.07, -0.02, 0.24, 0.10, 0.16 (controls 0 of 18). With KQSQSELYGSRNKNSVA / DASQRES / QDYHRLPLS the result was 0.18, 0.19, 0.24, 0.05, 0.20, 0.39 (controls 1 of 18). With KSSQSVLTESRNKNSVA / WASTRES / QQYHRGPLS the result was nd, nd, nd, nd, nd, nd (controls 0 of 18).

For KFSQSVLYESRNKNSVA / WASTRES / QQYFRLPLS, the assay gave 0.18, -0.02, 0.36, 0.01, 0.85, 0.37 (controls 0 of 18).

Of ten entries with the parent sequence, four were seen in most replicates (averages 0.34 to 2.37), three in one and three in none, so single entries are noisy.
Nonspecific signal, from three strains lacking the peptide, appeared in 4% of pairings of all light chain designs, centred on 2.64 (5% of these signals below 1.59); values are not corrected for it. For each scFv, signals with the empty controls are counted beside the result.
A sequence measured in both rounds can read differently, since the two assays cover different ranges.